# According to patent US10125150B2, “Crystalline forms of a PI3K inhibitor” (Incyte Corporation, priority 2015, dated 2018):
# Target: human JAK1 (a.a. 837-1142) (Homo sapiens, UniProt P23458)
# Test: In vitro JAK kinase assay (Example D), JAK1
# Format: biochemical
# Conditions: 1 mM ATP
smiles,measurement,value
"CN(C)Cc1cc(F)cc(OC2CCN(CC(CC#N)n3cc(-c4ncnc5[nH]ccc45)cn3)CC2)c1 (single isomer, unassigned) [Form 14, 4-(4-{3-[(dimethylamino)methyl]-5-fluorophenoxy}piperidin-1-yl)-3-[4-(7H-pyrrolo[2,3-d]pyrimidin-4-yl)-1H-pyrazol-1-yl]butanenitrile]",IC50,< 10 nM
